# Assay results as given in patent publication US12583846B2, “2H-benzopyran derivatives as CRAC inhibitors” (CISEN PHARMACEUTICAL CO., LTD, priority 2019, dated 2026).
# Amino acid sequences for entries named in this document (tags omitted). Residues count along the entry.
# UniProt Q5M848, whole entry: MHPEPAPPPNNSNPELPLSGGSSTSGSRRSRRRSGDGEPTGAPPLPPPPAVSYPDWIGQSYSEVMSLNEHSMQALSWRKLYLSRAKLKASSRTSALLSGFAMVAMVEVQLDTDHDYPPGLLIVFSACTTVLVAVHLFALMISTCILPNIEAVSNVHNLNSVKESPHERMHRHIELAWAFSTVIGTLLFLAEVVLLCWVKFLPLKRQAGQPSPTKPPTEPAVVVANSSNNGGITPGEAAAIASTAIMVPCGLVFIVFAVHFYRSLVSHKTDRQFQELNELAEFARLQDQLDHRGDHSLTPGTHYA
# UniProt P84903, 23-685 partner limits assumed: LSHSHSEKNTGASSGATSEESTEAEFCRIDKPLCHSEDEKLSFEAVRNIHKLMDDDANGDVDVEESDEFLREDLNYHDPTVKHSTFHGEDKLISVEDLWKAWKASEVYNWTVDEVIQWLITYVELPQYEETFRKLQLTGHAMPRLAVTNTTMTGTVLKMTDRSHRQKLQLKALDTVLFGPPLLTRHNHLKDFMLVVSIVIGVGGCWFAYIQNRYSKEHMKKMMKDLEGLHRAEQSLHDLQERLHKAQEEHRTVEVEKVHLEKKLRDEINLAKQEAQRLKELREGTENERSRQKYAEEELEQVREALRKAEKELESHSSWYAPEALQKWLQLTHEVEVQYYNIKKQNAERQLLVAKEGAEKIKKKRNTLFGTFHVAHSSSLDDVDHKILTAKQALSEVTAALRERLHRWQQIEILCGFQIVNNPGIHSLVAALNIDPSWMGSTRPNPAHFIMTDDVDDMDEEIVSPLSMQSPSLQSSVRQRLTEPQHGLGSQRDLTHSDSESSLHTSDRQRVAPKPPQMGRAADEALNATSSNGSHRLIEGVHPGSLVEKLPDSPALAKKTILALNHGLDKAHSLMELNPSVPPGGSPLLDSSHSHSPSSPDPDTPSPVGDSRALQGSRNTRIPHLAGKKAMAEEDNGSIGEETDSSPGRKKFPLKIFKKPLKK
# Experiments:
# IL-2 = assay: Inhibitory activity on cytokines: IL-2 in supernatant of anti-CD3/anti-CD28 stimulated hPBMC by CBA method; details: read-out: IL-2 IC50, anti-CD3/anti-CD28, 2 days incubation
# Method: (§1) Human peripheral blood mononuclear cells (hPBMC); supplier: HemaCare; Article Number: PB009C-2
# (§2) 96-well plates were coated with 5 μg/mL anti-human CD3 antibody (in DPBS) at […] overnight at 4° C.
# (§3) PBMC were removed from liquid nitrogen and immediately placed in a 37° C. water bath for recovery. To a 15 mL centrifuge tube, 5 mL culture medium (RPMI1640 culture medium+10% fetal bovine serum+1% non-essential amino acids+1% penicillin streptomycin+0.05 mM β-mercaptoethanol) was added, and the cell suspension was pipetted to the centrifuge tube, and the mixture was centrifuged at 320 g for 5 minutes. The cells were resuspended with culture medium and counted, and the cell concentration was then adjusted to 5×10^5 cells/mL with the culture medium, To the cell suspension was added anti-human CD28 antibody (final concentration 2 μg/mL), and the mixture was inoculated into a 96-well plate at 200 μL/well.
# (§4) Compounds were prepared at the desired concentration and added to the cells. The mixture was incubated at 37° C., 5% CO2 for 2 days.
# (§5) The standards were prepared according to the instructions of IL-2 and TNFα Flex Set kit. […] The average fluorescence intensity of the PE channel was detected by flow cytometry. Based on the average fluorescence intensity of the standards, the contents of IL-2 and TNF-α of the samples were calculated.
# TNF-α = assay: Inhibitory activity on cytokines: TNFα in supernatant of anti-CD3/anti-CD28 stimulated hPBMC by CBA method; details: read-out: TNF-α IC50, anti-CD3/anti-CD28, 2 days incubation
# Method: as §1, §2, §3, §4, §5
# CRAC channel = CRAC channel (Rattus norvegicus, UniProt Q5M848); assay: CRAC in vitro cell activity test: inhibition of Ca2+ by FLIPR calcium flux assay in RBL-2H3 cells; type: cell-based; details: read-out: IC50 for inhibition of Ca2+ by FLIPR assay, RBL-3H cell assay (RBL-2H3), thapsigargin
# Method: 1.3 Cell Strain: RBL-2H3, Derived from the HDB Cell Bank. 2. Experimental Procedure and Method: 2.1 Cell Plating • 1) Preparing a biosafety cabinet and preheating relevant reagents. Cells were observed daily and passaged until 85% area of the 10 cm culture dish was covered with cells. • 2) The cell culture dish was taken out and the culture medium was removed. The cell surface was washed with DPBS, and DPBS was then removed. The cells were digested with 1 mL of 0.25% Trypsin-EDTA for 1-3 minutes, and digestion was stopped by adding 2 mL of culture medium. A pipetting gun was used to gently blow cells until the cells fall off the surface of the culture dish. • 3) The cell density was adjusted to 15000 cells per well using growth culture medium in a volume of 25 μL culture medium per well. • 4) The cell culture plates were incubated to 80% density in an incubator at 37° C. and 5% CO2. […]
# Data Processing: the collected signal results were analyzed and graphed using ScreenWorks, Excel, Xlfit. and GraphPad.
structure (smiles),measurement,setting,value
O=C(Nc1ncc(-c2cc3oc(C4CC4)nc3cc2Cl)cn1)c1c(F)cncc1F,IC50,IL-2,0.201 µM
same,IC50,TNF-α,0.303 µM
same,IC50,CRAC channel,0.124 µM
